Results from ChEMBL document CHEMBL1687833, “Genetic context and biochemical characterization of the IMP-18 metallo-beta-lactamase identified in a Pseudomonas aeruginosa isolate from the United States” (2011).

Columns and labels:
Pseudomonas aeruginosa [1] = test: Ratio of Kcat to Km for Pseudomonas aeruginosa strain PS 297 metallo-beta-lactamase IMP18 expressed in Escherichia coli BL21(DE3) assessed as substrate hydrolysis using 100 uM nitrocefin
Pseudomonas aeruginosa [2] = test: Ratio of Kcat to Km for Pseudomonas aeruginosa strain PS 297 metallo-beta-lactamase IMP-1 expressed in Escherichia coli BL21(DE3) assessed as substrate hydrolysis using 100 uM nitrocefin
Pseudomonas aeruginosa [3] = test: Activity of Pseudomonas aeruginosa strain PS 297 metallo-beta-lactamase IMP-18 expressed in Escherichia coli BL21(DE3) assessed as substrate hydrolysis using 100 uM nitrocefin

## CO[C@@]1(NC(=O)Cc2cccs2)C(=O)N2C(C(=O)O)=C(COC(N)=O)CS[C@@H]21 [CEFOXITIN]
Pseudomonas aeruginosa [1]
  kcat/Km: 1.8 ×10⁵ /M/s
Pseudomonas aeruginosa [2]
  kcat/Km: 2 ×10⁶ /M/s
Pseudomonas aeruginosa [3]
  Km: 11 µM
  kcat: 2 s⁻¹
